Consider one molecule from patent US20230173091A1 (published 2023).

The target of the test is T1, CD20 (Acro Biosystems) (UniProt P11836 1-297).
T1 sequence (looked up): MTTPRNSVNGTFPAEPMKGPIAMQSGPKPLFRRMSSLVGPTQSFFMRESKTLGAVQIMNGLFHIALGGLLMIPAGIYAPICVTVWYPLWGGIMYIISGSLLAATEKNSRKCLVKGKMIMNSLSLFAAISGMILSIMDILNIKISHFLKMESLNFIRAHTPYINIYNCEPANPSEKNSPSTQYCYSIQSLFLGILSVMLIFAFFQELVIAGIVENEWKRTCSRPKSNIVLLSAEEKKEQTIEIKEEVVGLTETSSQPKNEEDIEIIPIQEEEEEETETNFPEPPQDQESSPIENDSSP

B1: obinutuzumab (antibody, V domains shown)
VH: QVQLVQSGAEVKKPGSSVKVSCKASGYAFSYSWINWVRQAPGQGLEWMGRIFPGDGDTDYNGKFKGRVTITADKSTSTAYMELSSLRSEDTAVYYCARNVFDGYWLVYWGQGTLVTVSS
VL: DIVMTQTPLSLPVTPGEPASISCRSSKSLLHSNGITYLYWYLQKPGQSPQLLIYQMSNLVSGVPDRFSGSGSGTDFTLKISRVEAEDVGVYYCAQNLELPYTFGGGTKVEIK
As for B1, binding was characterised by a dissociation constant (Kd) of 5.03 nM, the koff was found to be 0.00123 s⁻¹ and the association rate constant (kon) worked out at 246000 M⁻¹ s⁻¹.

For orientation: Kd means the free concentration of one partner at which half of the binding sites on the other are occupied at equilibrium, for simple one-to-one binding. Low values mean a tighter complex, high ones a looser complex. A word on the koff: it is a measure of how fast the partners let go of each other. Broadly, the kon is the second-order rate constant of association. Lower therefore signals slower complex formation.
